Reference: PMC8203840

Biological target: human glycogenin-1 fused to chitin-binding domain (CBD)-intein (human) (UniProt P46976)
Assay: pull-down; CBD-intein-GN1 variants immobilised on chitin beads (20 ul) incubated at 4 °C for 2 h with 50 ul clarified E. coli extracts of His6-TRIM7^B30.2 variants in PBS with protease inhibitor mix; washed three times with PBS; immunoblot with anti-His6 antibody

## TRIM7^B30.2 Arg354Ala (from UniProt Q9C029 338-511) (domain or fragment; other documents disagree on this pair)
  fold change of binding against TRIM7^B30.2 WT: 2 fold
